The values that follow are results of earlier work, collected in patent publication US10962518B2, “Dissolution test for sensitive drugs” (ROYAN INSTITUTE, priority 2017, dated 2021).

The conditions of this data set: PBS buffer pH = 7.4; at 37° C.; cited from earlier work.

Consider Insulin, for which the tstability of drug was 2 h.
